# Literature values as cited in article PMC12369603, “Functional characterization of antennae-enriched chemosensory protein 4 in emerald ash borer, Agrilus planipennis” (PeerJ, 2025).
# System: female A. planipennis
# Details: ref Cáceres et al., 2016, Sun et al.; cited from earlier work
structure (smiles),measurement,value
CC(=O)/C=C/C1=C(C)CCCC1(C)C [β-Ionone],repellent activity,repellent activity
